Results published in US20250313563A1, “GLYCOGEN SYNTHASE KINASE 3 INHIBITORS AND USES THEREOF” (The Broad Institute, Inc., priority 2022, published 2025).
pIC50: −log10 of the molar value. Read-outs that look alike come from different tables or passages of the source.

By UniProt entry, the sequences of proteins in these tests, tags left out.
UniProt P49840, whole entry: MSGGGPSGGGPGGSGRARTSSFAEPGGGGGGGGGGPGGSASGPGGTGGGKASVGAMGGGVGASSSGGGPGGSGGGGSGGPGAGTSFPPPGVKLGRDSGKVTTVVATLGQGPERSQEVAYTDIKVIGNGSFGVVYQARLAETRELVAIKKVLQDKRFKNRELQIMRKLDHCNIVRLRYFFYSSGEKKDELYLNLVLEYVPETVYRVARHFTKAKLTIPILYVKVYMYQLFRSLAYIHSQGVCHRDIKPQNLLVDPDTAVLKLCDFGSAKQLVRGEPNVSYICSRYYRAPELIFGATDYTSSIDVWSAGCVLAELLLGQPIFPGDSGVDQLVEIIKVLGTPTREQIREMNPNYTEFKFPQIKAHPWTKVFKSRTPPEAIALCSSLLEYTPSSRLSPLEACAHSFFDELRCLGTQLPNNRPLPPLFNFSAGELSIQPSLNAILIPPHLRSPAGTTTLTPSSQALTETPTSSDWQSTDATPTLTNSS
UniProt P49841, whole entry: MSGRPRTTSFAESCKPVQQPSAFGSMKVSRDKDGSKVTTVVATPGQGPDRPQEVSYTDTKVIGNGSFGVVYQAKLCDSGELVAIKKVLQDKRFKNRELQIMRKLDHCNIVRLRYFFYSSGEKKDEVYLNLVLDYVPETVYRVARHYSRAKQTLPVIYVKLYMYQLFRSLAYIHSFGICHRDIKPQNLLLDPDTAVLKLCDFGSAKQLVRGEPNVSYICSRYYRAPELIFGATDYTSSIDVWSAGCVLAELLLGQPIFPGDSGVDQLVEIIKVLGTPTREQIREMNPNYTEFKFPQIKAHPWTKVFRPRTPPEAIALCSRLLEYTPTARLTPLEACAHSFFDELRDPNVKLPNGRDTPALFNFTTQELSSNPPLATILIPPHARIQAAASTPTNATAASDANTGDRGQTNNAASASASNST

How the values were obtained:
[1] = target: GSK3α (GST-full length GSK3α) (Homo sapiens (Human), UniProt P49840); experiment: GSK3α TR-FRET kinase assay; type: biochemical
[2] = target: GSK3b (GST-full length GSK3b) (Homo sapiens (Human), UniProt P49841); experiment: GSK3b TR-FRET kinase assay; type: biochemical
[3] = read-out: GSK3-A TR-FRET BIOCHEMICAL (TR-FRET), GMean, IC50, 1 nM GSK3α, 4 μM ATP, 30 minute preincubation, geometric mean
[4] = read-out: GSK3-B TR-FRET BIOCHEMICAL (TR-FRET), GMean, IC50, 1 nM GSK3b, 2 μM ATP, 30 minute preincubation, geometric mean
[5] = read-out: GSK3-A (TR-FRET 1 mM ATP), GMean, IC50, 1 mM ATP, geometric mean
[6] = read-out: GSK3-A TR-FRET BIOCHEMICAL (TR-FRET), IC50, 1 nM GSK3α, 4 μM ATP, 30 minute preincubation
[7] = read-out: GSK3-B (TR-FRET 1 mM ATP), GMean, IC50, 1 mM ATP, geometric mean
[8] = read-out: GSK3-B TR-FRET BIOCHEMICAL (TR-FRET), IC50, 1 nM GSK3b, 2 μM ATP, 30 minute preincubation
[9] = read-out: GSK3-A TR-FRET BIOCHEMICAL (TR-FRET);, 1 nM GSK3α, 4 μM ATP, 30 minute preincubation, Table 16
[10] = read-out: GSK3-B TR-FRET BIOCHEMICAL (TR-FRET);, 1 nM GSK3b, 2 μM ATP, 30 minute preincubation, Table 16
[11] = read-out: GSK3-A TR-FRET BIOCHEMICAL (TR-FRET), IC50, 1 nM GSK3α, 4 μM ATP, 30 minute preincubation (Table 16)
[12] = read-out: GSK3-B TR-FRET BIOCHEMICAL (TR-FRET), IC50, 1 nM GSK3b, 2 μM ATP, 30 minute preincubation (Table 16)

CC[C@@]1(c2cccc(-c3ccnn3C)c2)C2=C(C[C@@]3(CCCOC3)NC2=O)Nc2n[nH]cc21
pIC50 [1, 3]: 5.30 to 6.00
pIC50 [2, 4]: < 5.30

CC1(C)CC(=O)C2=C(C1)Nc1n[nH]cc1[C@]21COC2(CN(C(=O)[C@@H]3CC3(F)F)C2)C1
pIC50 [1, 5]: 6.00 to 7.00
pIC50 [1, 6]: > 7.00
pIC50 [2, 7]: 5.30 to 6.00
pIC50 [2, 8]: > 7.00

CCC1(c2cccc(-c3cc(C)nc(OC(F)F)c3)c2)C2=C(CC(C)(C)CC2=O)Nc2n[nH]cc21 (stereo not shown)
pIC50 [1, 9]: 6.00 to 7.00
pIC50 [2, 10]: 5.30 to 6.00

CC[C@]1(c2cccc(C(F)(F)F)c2)C2=C(C[C@@H](C)NC2=O)Nc2n[nH]cc21
pIC50 [1, 6]: > 7.00
pIC50 [2, 8]: 6.00 to 7.00

CCC1(c2cccc(NC(C)=O)c2)C2=C(CC(C)(C)CC2=O)Nc2n[nH]cc21 (stereo not shown)
pIC50 [1, 3]: > 7.00
pIC50 [2, 4]: 6.00 to 7.00

CC[C@]1(c2cccc(-c3ccnc(C)c3)c2)C2=C(CC(C)(C)NC2=O)Nc2n[nH]cc21
pIC50 [1, 6]: 6.00 to 7.00
pIC50 [2, 8]: < 5.30

CC[C@@]1(c2cccc(-c3cc(C)ncc3C)c2)C2=C(CC(C)(C)CC2=O)Nc2n[nH]c(C)c21
pIC50 [1, 11]: 6.00 to 7.00
pIC50 [2, 12]: 5.30 to 6.00

CC[C@@]1(c2cccc(-c3cnn(C)c3C)c2)C2=C(CC(C)(C)NC2=O)Nc2n[nH]c(C(F)(F)F)c21
pIC50 [1, 5]: > 7.00
pIC50 [1, 3]: > 7.00
pIC50 [2, 7]: > 7.00
pIC50 [2, 4]: > 7.00

CC[C@]1(c2cccc(-c3ccnc(C)c3)c2)C2=C(C[C@@H](C)NC2=O)Nc2n[nH]cc21
pIC50 [1, 5]: 6.00 to 7.00
pIC50 [1, 6]: > 7.00
pIC50 [2, 7]: < 5.30
pIC50 [2, 8]: 6.00 to 7.00

CC[C@@]1(c2cccc(N3CCc4ccncc43)c2)C2=C(CC(C)(C)CC2=O)Nc2n[nH]cc21
pIC50 [1, 11]: > 7.00
pIC50 [2, 12]: 6.00 to 7.00

CCC1(c2cccc(N3[C@H](C)CCC[C@@H]3C)c2)C2=C(CC(C)(C)CC2=O)Nc2n[nH]cc21 (stereo partly shown)
pIC50 [1, 3]: 6.00 to 7.00
pIC50 [2, 4]: 5.30 to 6.00

CC[C@]1(c2cccc(C3CCOCC3)c2)C2=C(CC(C)(C)CC2=O)Nc2n[nH]cc21
pIC50 [1, 3]: 5.30 to 6.00
pIC50 [2, 4]: < 5.30

CC[C@@]1(c2cccc(-c3ccnc(C)c3)c2)C2=C(Nc3n[nH]cc31)[C@H]1CC[C@H](C1)C2=O
pIC50 [1, 9]: 5.30 to 6.00
pIC50 [2, 10]: < 5.30

CC[C@@]1(c2cccc(-c3ccnc4ccc(Cl)cc34)c2)C2=C(CC(C)(C)NC2=O)Nc2n[nH]cc21
pIC50 [1, 3]: 6.00 to 7.00
pIC50 [2, 4]: 5.30 to 6.00

CC[C@]1(c2cccc(-c3ccncc3)c2)C2=C(Nc3n[nH]cc31)[C@H](F)C(C)(C)CC2=O
pIC50 [1, 5]: 6.00 to 7.00
pIC50 [1, 9]: > 7.00
pIC50 [2, 7]: 5.30 to 6.00
pIC50 [2, 10]: > 7.00

CC[C@@]1(c2cccc(-c3ccnc(C)c3OC)c2)C2=C(CC(C)(C)CC2=O)Nc2n[nH]cc21
pIC50 [1, 9]: < 5.30
pIC50 [2, 10]: < 5.30

CC[C@@]1(c2cccc(C(F)(F)F)c2)C2=C(CCN(c3cscn3)C2=O)Nc2n[nH]cc21
pIC50 [1, 11]: > 7.00
pIC50 [2, 12]: 6.00 to 7.00

CC[C@@]1(c2cccc(-c3cc[n+]([O-])c(C)c3)c2)C2=C(CC(C)(C)CC2=O)Nc2n[nH]cc21
pIC50 [1, 9]: 6.00 to 7.00
pIC50 [2, 10]: 5.30 to 6.00

CC[C@]1(c2ccc(OC(C)C)cc2)C2=C(CC(C)(C)CC2=O)Nc2n[nH]c(C(F)(F)F)c21
pIC50 [1, 9]: > 7.00
pIC50 [2, 10]: > 7.00

CC[C@]1(c2cccc(C(F)(F)F)c2)C2=C(CCN(c3cn(C)nc3C)C2=O)Nc2n[nH]cc21
pIC50 [1, 11]: 6.00 to 7.00
pIC50 [2, 12]: 5.30 to 6.00

CC[C@]1(c2cccc(C(F)(F)F)c2)C2=C(CC3(CCC3)NC2=O)Nc2n[nH]cc21
pIC50 [1, 6]: 6.00 to 7.00
pIC50 [2, 8]: < 5.30

CC[C@@]1(c2cccc(-c3cnn(C)c3)c2)C2=C(CC(C)(C)NC2=O)Nc2n[nH]c(C(F)(F)F)c21
pIC50 [1, 5]: > 7.00
pIC50 [1, 3]: > 7.00
pIC50 [2, 7]: 6.00 to 7.00
pIC50 [2, 4]: > 7.00

CC[C@@]1(c2cccc(-c3ccnn3C)c2)C2=C(CC(C)(C)NC2=O)Nc2n[nH]cc21
pIC50 [1, 5]: 6.00 to 7.00
pIC50 [1, 6]: > 7.00
pIC50 [2, 7]: 5.30 to 6.00
pIC50 [2, 8]: > 7.00

CC[C@]1(c2cccc(C(F)(F)F)c2)C2=C(CC(C)(C)CC2=O)Nc2n[nH]c(C)c21
pIC50 [1, 3]: 6.00 to 7.00

CC[C@@]1(c2cccc(C)c2)C2=C(CC3(CCCC3)CC2=O)Nc2n[nH]cc21
pIC50 [2, 4]: < 5.30

CC(C)(C)Cc1[nH]nc2c1[C@@](C)(c1ccccc1)C1=C(CC(C)(C)NC1=O)N2
pIC50 [2, 7]: < 5.30

CC[C@]1(c2cccc(C(F)(F)F)c2)C2=C(CC3(CCCC3)CC2=O)Nc2n[nH]cc21
pIC50 [1, 3]: 6.00 to 7.00

CCC1(c2cccc(N3CCOCC3)c2)C2=C(CC(C)(C)CC2=O)Nc2n[nH]cc21 (stereo not shown) [Compound 810363]
pIC50 [1, 3]: 6.00 to 7.00

CC[C@]1(c2cccc(C(F)(F)F)c2)C2=C(CC(C)(C)CC2=O)Nc2n[nH]cc21
pIC50 [1, 3]: 6.00 to 7.00
